PubChem BioAssay AID1984 (Sanford-Burnham Center for Chemical Genomics, 2009)
Where “and” joins values, the source holds several entries; their conditions need not be identical. Identical values can stand only once. The list shows a part of the results, in another mix than the full data. Calls of active or inactive are those of the source.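 How the source made its calls: active means EGFP signal decrease of at least 30% at 10 µM or well 3 SD below plate mean, unless failing retest; inactive means the rest, including hits failing retest or dose response.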

Target: p/CIP-EGFP fusion (nuclear receptor coactivator 3, mouse) (UniProt Q05BA5)
Assay: p/CIP-EGFP fusion destabilizers, primary screen, fluorescence, F442A cells (AID 1984)
Details: 16 h, at 10 µM, stronger effect = higher value

SMILES	decrease of EGFP signal
CCOc1ccc(C2=NCC(CBr)S2)cc1 (configuration not stated)	inactive: -11.4%
O=P1(Nc2nc3ccc(Cl)cc3s2)COc2ccccc2O1 (configuration not stated)	inactive: -0.3%
CC(C)(C)C(=O)NC(Sc1ccccc1)C(Cl)(Cl)Cl (configuration not stated)	inactive: 0%
CC(=O)c1ccc(N2CC2c2ccncc2)cc1 (configuration not stated)	inactive: -3.6%
C[C@@H]1C=CCP(=O)(Oc2ccccc2)O1 (some centres not stated)	inactive: -3.7%
C[C@H]1OP(=O)(Oc2ccccc2)C[C@@H]2O[C@@H]21 (some centres not stated)	inactive: 1.7%
CC(=O)Nc1ccc(Oc2c([N+](=O)[O-])cc([N+](=O)[O-])cc2[N+](=O)[O-])cc1	inactive: 4.4%
CC(=O)Nc1ccc([As](=O)(O)O)c(O)c1	inactive: -1.9%
O=C(NC1CCS(=O)(=O)C1)NP(=S)(Oc1ccccc1)Oc1ccccc1 (configuration not stated)	inactive: 5.7%
CCNC(=S)/N=C(\N)N[N+](=O)[O-]	inactive: 12%
Cc1ccc(NP(=O)(Oc2cccc(C)c2)Oc2cccc(C)c2)nc1	inactive: 14.3%
CCOC(=O)NC(Sc1ccccc1)C(Cl)(Cl)Cl (configuration not stated)	inactive: -1%
c1ccc(-c2nn[nH]n2)c(-c2nn[nH]n2)c1	inactive: 0.7%
CC(=O)NC(SC(=S)N(CC(C)C)CC(C)C)C(Cl)(Cl)Cl (configuration not stated)	inactive: 1.8%
Cc1ccc(OP(=O)(Nc2ccccn2)Oc2ccc(C)cc2)cc1	inactive: 3.9%
COC(=O)c1cc2c(s1)N=C(c1ccccc1)N(C)P2(=O)N1CCOCC1 (configuration not stated)	inactive: -3%
CCC(=O)N1C2C3N(C(=O)CC)C1C1N(C(=O)CC)C(C(N1C(=O)CC)N3C(=O)CC)N2C(=O)CC	inactive: 2.3%
O=C(OC1CN2CCC1CC2)c1ccccc1 (configuration not stated)	inactive: -6.6%
CN(C)C(=O)Oc1noc2ccccc12	inactive: 8%
O=c1c2cc([N+](=O)[O-])ccc2[nH]c2c([N+](=O)[O-])cc([N+](=O)[O-])cc12	inactive: -16.8%
Cc1ccccc1OP(=O)(Nc1ccccn1)Oc1ccccc1C	inactive: 3.9%
CN(C)C1(CNC(=O)c2ccc(Cl)c(S(N)(=O)=O)c2)CCCCC1	inactive: 6.4%
O=P(Nc1ccccn1)(c1ccc(Br)cc1)c1ccc(Br)cc1	inactive: 11.9%
C[C@H]1OP(=O)(Oc2ccccc2)[C@H](O)[C@H](O)[C@H]1N=[N+]=[N-] (some centres not stated)	inactive: -2.6%
O=P(Nc1nc2ccccc2s1)(c1ccccc1)c1ccccc1	inactive: -5.3%
CC(=O)NC(SC(=S)N(C)C)C(Cl)(Cl)Cl (configuration not stated)	inactive: 3%

SMILES	decrease of EGFP signal
O=[N+]([O-])c1ncn(CCn2cnc([N+](=O)[O-])n2)n1	inactive: -3.7%
O=[N+]([O-])c1ccc(O)c(/C=N/Nc2ccc([N+](=O)[O-])cc2[N+](=O)[O-])c1	inactive: 3.8%
O=[As](O)(c1ccccc1)c1ccc(O)cc1	inactive: -0.3%
Nc1ccc([As](=O)(O)c2ccc([N+](=O)[O-])cc2)cc1	inactive: -2.2%
C(Cc1nn[nH]n1)Cc1nn[nH]n1	inactive: 0.5%
O=C(OC1CN2CCC1CC2)c1cccc(Cl)c1 (configuration not stated)	inactive: -10.6%
O=P(Nc1nccs1)(c1ccccc1)c1ccccc1	inactive: 1%
CC(C)C(=O)NC(Sc1ccccc1)C(Cl)(Cl)Cl (configuration not stated)	inactive: -1.4%
c1nnnn1CCn1cnnn1	inactive: -10.4%
COc1ccc(C2=NCC(CBr)S2)cc1 (configuration not stated)	inactive: 0.8%
CC(=O)N1C2C3N(C(C)=O)C1C1N(C(C)=O)C(C(N1C(C)=O)N3C(C)=O)N2C(C)=O	inactive: -6.1%
O=[N+]([O-])c1cccc2n[nH]nc12	inactive: 1.7%
O=[N+]([O-])c1cc([N+](=O)[O-])c(CCNc2ccccc2)c([N+](=O)[O-])c1	inactive: -1.2%
CCc1nc2c(n1)c1c(non1O)c1c2no[n+]1[O-]	inactive: -30.1%
Cc1ccc(NP(=O)(Oc2ccccc2)Oc2ccccc2)nc1	inactive: 13.9%
C[N+]1=C2C=CC=CC=C2SC12C([N+](=O)[O-])=CC([N+](=O)[O-])=C[C-]2[N+](=O)[O-] (configuration not stated)	inactive: -1.7%
Nc1ccc([As](=O)(O)c2ccc(N)cc2)cc1	inactive: 4.7%
CCN(/C(=N/P(=O)(N1CCOCC1)N1CCOCC1)N1CCOCC1)c1ccc(OC)cc1	inactive: 8.9%
CN(C)C(=O)OCCc1n(C)cc[n+]1C	inactive: -11.1%
CC(C)=N/N=C(\N)N[N+](=O)[O-]	inactive: -2.2%
CC1CCN(C(=O)Oc2c(Cl)cc(Cl)c3cccnc23)CC1	inactive: -14.1%
O=C(Nc1cc([As](=O)(O)O)ccc1O)c1ccccc1	inactive: -0.6%
CC(C)(C)C(=O)NC(Sc1ccncn1)C(Cl)(Cl)Cl (configuration not stated)	inactive: -0.6%
O=[N+]([O-])c1ncn(CCn2ncnc2[N+](=O)[O-])n1	inactive: 10.9%
O=[N+]([O-])c1cccc(NC2=NCC(CBr)S2)c1 (configuration not stated)	inactive: -12.6%
O=C(O)CNc1ccc([As](=O)(O)O)cc1	inactive: 0%

SMILES	decrease of EGFP signal
O=C(O)c1ccccc1[As](=O)(O)O	inactive: 4%
CC(=O)Nc1ccc([As](=O)(O)O)cc1	inactive: 0%
O=P(Nc1nc2ccc(Cl)cc2s1)(c1ccccc1)c1ccccc1	inactive: -2%
Cc1ccc(NP(=O)(Oc2ccccc2F)Oc2ccccc2F)nc1	inactive: -4.9%
CCOP(=O)(Nc1ccccc1)OCC	inactive: 6.6% and inactive: 4%
Cc1cc(SC(NC(=O)c2ccc(F)cc2)C(Cl)(Cl)Cl)ncn1 (configuration not stated)	inactive: -3.6%
O=[N+]([O-])c1cc([N+](=O)[O-])c(CCN2CCOCC2)c([N+](=O)[O-])c1	inactive: -10.9%
CCN(N=Nc1nonc1N)c1nonc1N	inactive: -1.1%
Nc1cccc2ccc([As](=O)(O)O)cc12	inactive: -12.3%
NC(=O)c1cc([N+](=O)[O-])cc([N+](=O)[O-])c1N	inactive: 0.5%
Cc1ccc(N/C(=N/P(=O)(N2CCOCC2)N2CCOCC2)N2CCOCC2)cc1	inactive: -0.2%
Cc1ccc(OP(=O)(Nc2nccs2)Oc2ccc(C)cc2)cc1	inactive: 1.6%
COc1ccccc1OP(=O)(Nc1ccc(C)cn1)Oc1ccccc1OC	inactive: -12.7%
Clc1ccc(Cl)c(NC2=NCC(CBr)S2)c1 (configuration not stated)	inactive: -0.4%
CN1CCCC(OC(=O)C(c2ccccc2)c2ccccc2)C1 (configuration not stated)	inactive: 0.2%
CC(C)CC(=O)NC(Sc1ccc(Cl)cc1)C(Cl)(Cl)Cl (configuration not stated)	inactive: -4%
Nc1cc(N)c2nonc2c1[N+](=O)[O-]	inactive: -2.5%
Cc1c2non([O-])c-2c(C)[n+](=O)[n+]1[O-]	inactive: -3.5%
O=C(NC(Sc1ccncn1)C(Cl)(Cl)Cl)c1ccccc1 (configuration not stated)	inactive: -6.1%
Oc1ccccc1CNc1ccccn1	inactive: -2.2%
Cc1cc(=O)[nH]c(N[N+](=O)[O-])n1	inactive: 6.6%
O=C(OC1CN2CCC1CC2)C12CC3CC(CC(C3)C1)C2 (configuration not stated)	inactive: 8.3%
Cc1c2c(nc3ccccc13)SC(C(Cl)Cl)C2 (configuration not stated)	inactive: -17%
COc1cc(I)ccc1[As](=O)(O)O	inactive: 2.6%
COc1ccc2nc(NP(=O)(c3ccccc3)c3ccccc3)sc2c1	inactive: -10.7%
COc1ccc(N/C(=N/P(=O)(N2CCOCC2)N2CCOCC2)N2CCOCC2)cc1	inactive: 6.6%

SMILES	decrease of EGFP signal
O=[As](O)(c1ccc(O)cc1)c1ccccc1O	inactive: -3%
C[As](=O)(O)c1cccc(C(=O)O)c1	inactive: -7.2%
Cc1ccc2nc3c(c(C)c2c1)CC(C(Cl)Cl)S3 (configuration not stated)	inactive: -4.3%
Cc1ccc(OP(=O)(Nc2ccc([N+](=O)[O-])cn2)Oc2ccc(C)cc2)cc1	inactive: 6%
CC(C)c1ccc(OP(=O)(Nc2ccccn2)Oc2ccccc2F)cc1 (configuration not stated)	inactive: -4.6%
ClCCSc1nnc(-c2cccnc2)o1	inactive: -5%
O=[N+]([O-])c1cc([N+](=O)[O-])c(-c2ccn[nH]2)s1	inactive: 1%
CCN(CC)C(=S)SC(NC=O)C(Cl)(Cl)Cl (configuration not stated)	inactive: 4.2%
CC(C)NC(=O)NP(=O)(Oc1ccccc1)Oc1ccccc1	inactive: 4.6%
CCOC(=O)Nc1ccc([As](=O)(O)O)c(O)c1	inactive: -11.8%
Cc1cc(SC(NC(=O)c2ccccc2)C(Cl)(Cl)Cl)nc(C(C)C)n1 (configuration not stated)	inactive: -12.8%
CCCCOc1ccc(C(=O)NCC2(N3CCCCC3)CCCCC2)cc1OC	inactive: -4%
CCOC(=O)Nc1cccc([As](=O)(O)O)c1	inactive: -5.9%
O=[N+]([O-])c1ccc(Nc2ccc(Oc3ccc([N+](=O)[O-])cc3[N+](=O)[O-])cc2)c([N+](=O)[O-])c1	inactive: 0.1%
Cc1cc(SC(NC=O)C(Cl)(Cl)Cl)ncn1 (configuration not stated)	inactive: 8.6%
O=P(Nc1ccccn1)(c1cccc2ccccc12)c1cccc2ccccc12	inactive: -1.2%
COP1(=S)c2c(C)nn(CCC#N)c2N=C(c2ccc(F)cc2)N1C (configuration not stated)	inactive: 2.3%
O=C(Nc1ccncc1[N+](=O)[O-])c1ccc([N+](=O)[O-])cc1[N+](=O)[O-]	inactive: -17.6%
O=C(COc1ccccc1)OC1CN2CCC1CC2 (configuration not stated)	inactive: 7%
CCOC(=O)c1ccc(NC(=O)C(C)(CCl)SC)cc1 (configuration not stated)	inactive: -3.3%
O=C(OC1CN2CCC1CC2)c1cccc([N+](=O)[O-])c1 (configuration not stated)	inactive: 3%
CCC(C)N(CC(C)C)C(=S)SC(NC(C)=O)C(Cl)(Cl)Cl (configuration not stated)	inactive: -0.8%
CCOP(=O)(Nc1ccc(C)cn1)OCC	inactive: -5.2%
CCOP(=O)(NC(=NC(C)c1ccccc1)NC(C)c1ccccc1)OCC (configuration not stated)	inactive: -13.7%
